Results: ChEMBL document CHEMBL1155233, “Structure mechanism insights and the role of nitric oxide donation guide the development of oxadiazole-2-oxides as therapeutic agents against schistosomiasis” (J Med Chem, 2009)

Test system: Schistosoma mansoni
Assay: Antischistosomal activity against Schistosoma mansoni assessed as induction of parasite mortality after 8 hrs
Type: functional
Set-up: concentration or dose not given beside the values

`COc1ccccc1-c1no[n+]([O-])c1C#N` gave an Activity of 4%.
